This experiment deals with T1, M3 subtype muscarinic receptor (Sus scrofa, UniProt P11483).
T1 construct: Tracheal submucosal gland cells were isolated from the tracheal epithelium; endogenous in cells; host or cells: primary swine tracheal submucosal (mucus) gland cells in culture
As to the kind of experiment: ACh-induced short-circuit current (ΔIsc) in cultured airway mucus gland cells, Ussing chamber, Schild dose-ratio method. Type of experiment: cell-based, swine.

The chains behind the UniProt entries cited, without tags or fusion partners.
UniProt P11483, whole entry: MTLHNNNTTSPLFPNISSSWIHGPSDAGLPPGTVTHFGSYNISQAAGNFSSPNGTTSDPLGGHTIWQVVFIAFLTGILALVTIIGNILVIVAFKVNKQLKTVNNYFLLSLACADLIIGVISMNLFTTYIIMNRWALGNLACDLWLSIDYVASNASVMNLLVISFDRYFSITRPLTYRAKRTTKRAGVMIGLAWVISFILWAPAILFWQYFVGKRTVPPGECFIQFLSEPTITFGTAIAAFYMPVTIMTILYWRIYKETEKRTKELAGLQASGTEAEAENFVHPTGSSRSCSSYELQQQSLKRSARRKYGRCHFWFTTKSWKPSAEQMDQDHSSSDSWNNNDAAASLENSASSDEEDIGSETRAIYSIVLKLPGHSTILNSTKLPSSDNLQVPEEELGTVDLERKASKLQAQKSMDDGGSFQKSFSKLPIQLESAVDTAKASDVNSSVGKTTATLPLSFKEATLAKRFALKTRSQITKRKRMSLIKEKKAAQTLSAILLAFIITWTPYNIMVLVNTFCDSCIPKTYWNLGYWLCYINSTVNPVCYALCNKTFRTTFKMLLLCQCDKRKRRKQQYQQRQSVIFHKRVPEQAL

Structures are written as SMILES.

The source of these data is paper PMC1079883, “Effects of first and second generation antihistamines on muscarinic induced mucus gland cell ion transport” (BMC Pharmacology, 2005).

With `CN1[C@@H]2CC[C@H]1C[C@@H](OC(=O)C(CO)c1ccccc1)C2` (some centres unmarked) [Atropine], the Kb is 0.398 nM and the “Muscarinic inhibition (pA2)” value stood at 9.4.
